Reference: article PMC10332445 (Journal of medicinal chemistry, 2023)

By UniProt entry, the sequences of proteins in these tests, tags left out. Where a name states a change or a piece, a line headed by the entry shows the natural chain unless it says otherwise.
UniProt Q06187: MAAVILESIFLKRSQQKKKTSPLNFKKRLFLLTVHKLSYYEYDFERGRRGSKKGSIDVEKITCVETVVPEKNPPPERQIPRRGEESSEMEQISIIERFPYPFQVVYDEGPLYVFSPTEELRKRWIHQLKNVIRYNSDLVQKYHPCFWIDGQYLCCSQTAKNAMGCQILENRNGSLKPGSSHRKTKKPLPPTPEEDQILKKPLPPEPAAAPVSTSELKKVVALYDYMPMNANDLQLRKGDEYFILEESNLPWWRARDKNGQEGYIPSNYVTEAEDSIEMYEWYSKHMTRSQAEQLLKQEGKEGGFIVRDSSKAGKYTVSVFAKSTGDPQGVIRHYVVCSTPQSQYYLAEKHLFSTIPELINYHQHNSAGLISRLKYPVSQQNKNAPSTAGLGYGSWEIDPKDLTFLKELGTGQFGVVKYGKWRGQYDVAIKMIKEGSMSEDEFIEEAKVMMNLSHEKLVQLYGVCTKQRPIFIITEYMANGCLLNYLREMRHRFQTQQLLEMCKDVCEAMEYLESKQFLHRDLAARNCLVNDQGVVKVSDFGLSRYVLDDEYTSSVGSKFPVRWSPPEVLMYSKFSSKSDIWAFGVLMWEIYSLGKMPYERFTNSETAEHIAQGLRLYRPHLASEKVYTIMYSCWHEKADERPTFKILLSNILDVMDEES

Columns and labels:
Assay type in all cases: cell-based
[1] = tested on: Mino cells; test: Cell viability, CellTiter-Glo 2.0, Mino cells
[2] = tested on: TMD8 cells; test: Cell viability, CellTiter-Glo 2.0, TMD8 cells
[3] = biological target: BTK (Homo sapiens, UniProt Q06187); test: NanoBRET live-cell target engagement of BTK in HEK293 cells

In the case of C[C@H]1CN(C(=O)CNc2cccc3c2C(=O)N(C2CCC(=O)NC2=O)C3=O)CCN1c1ccc(Nc2cc(-c3ccnc(N4CCn5c(cc6c5CC(C)(C)C6)C4=O)c3CO)cn(C)c2=O)nc1 (stereo partly drawn) [PTD10, 4-((2-((S)-4-(6-((2’-(7,7-dimethyl-1-oxo-1,3,4,6,7,8-hexahydro-2H-cyclopenta[4,5]pyrrolo[1,2-a]pyrazin-2-yl)-3’-(hydroxymethyl)-1-methyl-6-oxo-1,6-dihydro-[3,4’-bipyridin]-5-yl)amino)pyridin-3-yl)-3-methylpiperazin-1-yl)-2-oxoethyl)amino)-2-(2,6-dioxopiperidin-3-yl)isoindoline-1,3-dione], the “Fold more potent than GDC-0853, cell growth” value [1] is reported as 3 fold, the “Fold more potent than pomalidomide, cell growth” value [2] is reported as “over 100 fold” and the “Fold less potent than GDC-0853 at engaging BTK” value [3] is reported as 8 fold.
